Reference: ChEMBL document CHEMBL4732039, “Introduction of a cyano group at the 2-position of an (R,S)-3-hydroxy-2-(phosphonomethoxy)propyl (HPMP) derivative of thymine elicits selective anti-HBV activity” (RSC Med Chem, 2021)

Experiment: Selectivity index, ratio of CC50 for human HFF cells to EC50 for antiviral activity against HCMV AD169

Nc1nc2c(ncn2COC(CO)CO)c(=O)[nH]1 [GANCICLOVIR]
Ratio CC50/EC50: >175
